This is an account of results in PubChem BioAssay AID687016 (The Scripps Research Institute Molecular Screening Center, 2013).

Protein sequences, listed by entry. Tags and fused reporters are not part of them. Lines headed by an entry give the natural chain unless they say otherwise; changes in a name come on top.
UniProt Q96T88: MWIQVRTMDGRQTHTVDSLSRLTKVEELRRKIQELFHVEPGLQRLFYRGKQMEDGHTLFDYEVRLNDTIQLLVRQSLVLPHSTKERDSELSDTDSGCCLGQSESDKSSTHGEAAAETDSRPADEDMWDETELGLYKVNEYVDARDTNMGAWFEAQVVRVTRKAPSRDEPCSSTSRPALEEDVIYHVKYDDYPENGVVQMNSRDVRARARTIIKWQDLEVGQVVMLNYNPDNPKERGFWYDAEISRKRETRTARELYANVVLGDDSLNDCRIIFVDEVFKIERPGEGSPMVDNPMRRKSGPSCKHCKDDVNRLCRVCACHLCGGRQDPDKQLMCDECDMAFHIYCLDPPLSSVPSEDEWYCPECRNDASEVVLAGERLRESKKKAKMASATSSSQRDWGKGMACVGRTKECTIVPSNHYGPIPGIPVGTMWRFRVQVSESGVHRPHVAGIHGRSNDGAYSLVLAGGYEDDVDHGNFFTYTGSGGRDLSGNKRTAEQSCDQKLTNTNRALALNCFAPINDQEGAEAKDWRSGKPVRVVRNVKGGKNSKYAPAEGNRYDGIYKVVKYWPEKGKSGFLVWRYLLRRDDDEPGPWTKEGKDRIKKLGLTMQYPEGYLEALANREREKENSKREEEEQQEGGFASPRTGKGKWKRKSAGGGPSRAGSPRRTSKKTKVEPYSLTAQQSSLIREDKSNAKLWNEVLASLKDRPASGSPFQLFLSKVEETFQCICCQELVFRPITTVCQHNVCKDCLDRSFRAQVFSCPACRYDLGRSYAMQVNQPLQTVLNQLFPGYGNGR

Only a part is listed here, and it is no random draw. Calls of active or inactive are those of the source. No stated cut-off is given here; in the data, active means inhibition above about 21%; inactive means the rest.

The target of this assay is E3 ubiquitin-protein ligase UHRF1 (Homo sapiens) (UniProt Q96T88). Briefly: UHRF1 methylated DNA binding inhibitors, primary screen, counter-screen for MBD2 inhibitor project, biochemical, TR-FRET, human UHRF1, single concentration (AID 687016).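 Further: UHRF1 SRA domain binding a hemimethylated CpG hairpin DNA probe; 0% = median of test compound wells and 100% = reference inhibitor.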 Particulars: UHRF1 binding to methylated oligo, at 4.4 µM, active compounds read high.
For orientation: inhibition means the change of the read-out against control, counted positive when it falls. For `COc1ccccc1OP(=O)(Nc1ccc(C)cn1)Oc1ccccc1OC`, the inhibition was inactive: 2.78%. The same measure for `CCN(/C(=N/P(=O)(N1CCOCC1)N1CCOCC1)N1CCOCC1)c1ccc(OC)cc1`: inactive: -2.79%. As to `C[N+]1=C2C=CC=CC=C2SC12C([N+](=O)[O-])=CC([N+](=O)[O-])=C[C-]2[N+](=O)[O-]` (configuration not stated), the inhibition is inactive: -4.89%. The result for `Nc1ccc([As](=O)(O)c2ccc(N)cc2)cc1` reads inactive: 0.15%; that for `c1cc(-c2nn[nH]n2)ccc1-c1nn[nH]n1`, inactive: 0.1%. The result for `CC1CCN(C(=O)Oc2c(Cl)cc(Cl)c3cccnc23)CC1` reads inactive: -1.36%.

`CN(C)C(=O)OCCc1n(C)cc[n+]1C`: the inhibition was inactive: -1.42%. Regarding `CC(C)=N/N=C(\N)N[N+](=O)[O-]`, the inhibition is inactive: -0.56%. The same measure for `CC(C)c1nc(Nc2ccccc2)n(P(=O)(N(C)C)N(C)C)n1`: inactive: 2.8%; for `COc1ccc(C2=NCC(CBr)S2)cc1` (configuration not stated): inactive: 3.18%. The result for `O=[N+]([O-])c1cc([N+](=O)[O-])c(CCNc2ccccc2)c([N+](=O)[O-])c1` reads inactive: -2.75%; that for `CCc1nc2c(n1)c1c(non1O)c1c2no[n+]1[O-]`, inactive: -12.9%; that for `Cc1ccc(NP(=O)(Oc2ccccc2)Oc2ccccc2)nc1`, inactive: 5.66%. As for `CC(=O)N1C2C3N(C(C)=O)C1C1N(C(C)=O)C(C(N1C(C)=O)N3C(C)=O)N2C(C)=O`, the inhibition is inactive: 1.96%. The result for `O=[N+]([O-])c1ncn(CCn2ncnc2[N+](=O)[O-])n1` reads inactive: 0.48%; that for `CC(C)(C)C(=O)NC(Sc1ccncn1)C(Cl)(Cl)Cl` (configuration not stated), inactive: 3.01%. On to `O=C(O)CNc1ccc([As](=O)(O)O)cc1`, for which the inhibition was inactive: 1.86%. In the case of `O=[N+]([O-])c1cccc(NC2=NCC(CBr)S2)c1` (configuration not stated), the inhibition is inactive: 6.8%.

As for `COC(=O)C1(C)COP(=O)(Nc2ccccc2)OC1` (configuration not stated), the inhibition is inactive: 0.61%. `O=P1(N(CCCl)CCCl)OCCCS1` (configuration not stated): the inhibition is inactive: -1.39%. As to `O=C(Nc1cc([As](=O)(O)O)ccc1O)c1ccccc1`, the inhibition is inactive: -0.61%. Regarding `CCOC(=O)Nc1cccc([As](=O)(O)O)c1`, the inhibition is inactive: -1.54%. `Cc1cc(SC(NC=O)C(Cl)(Cl)Cl)ncn1` (configuration not stated): the inhibition is inactive: 0.19%.

As for `O=P(Nc1ccccn1)(c1cccc2ccccc12)c1cccc2ccccc12`, the inhibition was inactive: 0.46%. The same measure for `O=[N+]([O-])c1ccc(Nc2ccc(Oc3ccc([N+](=O)[O-])cc3[N+](=O)[O-])cc2)c([N+](=O)[O-])c1`: inactive: 0.14%; for `O=C(O)C(O)c1ccc(N(CCCl)CCCl)cc1` (configuration not stated): inactive: -1.8%; for `CCOC(=O)Nc1ccc([As](=O)(O)O)c(O)c1`: inactive: 5.42%.
